From article PMC3335822 (PLoS ONE, 2012)

Experiments:
Eya3(ED) = target: T1, Eya3(ED) (Mus musculus, UniProt P97480); experiment: pNPP hydrolysis by the catalytic domain of Eya3; format: biochemical
T1 construct: The catalytic domain (ED) of mouse Eyes Absent 3 (Eya3(223–510)) was purified; made in house
T1 sequence (P97480 223-510): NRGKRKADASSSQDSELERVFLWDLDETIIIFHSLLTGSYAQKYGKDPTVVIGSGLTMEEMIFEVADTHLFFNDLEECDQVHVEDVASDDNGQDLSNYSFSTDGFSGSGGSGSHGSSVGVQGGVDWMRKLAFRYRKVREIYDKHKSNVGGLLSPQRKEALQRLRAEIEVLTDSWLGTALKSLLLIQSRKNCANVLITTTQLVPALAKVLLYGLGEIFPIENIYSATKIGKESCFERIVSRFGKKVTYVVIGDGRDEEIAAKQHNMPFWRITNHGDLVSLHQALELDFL
From the text: (§1) The catalytic domain (ED) of mouse Eyes Absent 3 (Eya3(223–510)) was purified as described before. Human Eyes Absent 3 isoform 2 (representing the major species identified in human cell lines by mass spectrometry and residues 127–573 of NM_001990, isoform 1) was sub-cloned into pDEST565 to express a poly-histidine- Glutathione-S-transferase (His-GST) tagged fusion protein with a TVMV protease site. The protein was purified by glutathione-S-transferase affinity chromatography followed by TVMV cleavage, Ni-NTA chromatography, and finally size exclusion chromatography.
The NCI Diversity Set II was obtained from the NCI in 96-well trays from the NIH Molecular Libraries Program and stored as 10 mM stocks in DMSO. An initial manual screen was conducted using the previously described p-nitrophenylphosphate assay and mouse Eya3(223–510) in a reaction mixture containing 20 mM MES pH 6, 2 mM MgCl2, 125 μM inhibitor, 3.4 mM para-nitrophenol phosphate (pNPP) and 0.01 μg/µL enzyme.
(§2) Compounds were dissolved in DMSO and diluted as needed. […] Reactions were incubated at 30°C for 30 minutes and quenched with 100 mM EDTA pH 10. IC50 values were then calculated directly from regression curves using PRISM. All reported values are the mean of two independent experiments.

human EYA3 [1] = target: T2, human EYA3 (Homo sapiens, UniProt Q99504); experiment: biochemical
T2 sequence (Q99504 127-573): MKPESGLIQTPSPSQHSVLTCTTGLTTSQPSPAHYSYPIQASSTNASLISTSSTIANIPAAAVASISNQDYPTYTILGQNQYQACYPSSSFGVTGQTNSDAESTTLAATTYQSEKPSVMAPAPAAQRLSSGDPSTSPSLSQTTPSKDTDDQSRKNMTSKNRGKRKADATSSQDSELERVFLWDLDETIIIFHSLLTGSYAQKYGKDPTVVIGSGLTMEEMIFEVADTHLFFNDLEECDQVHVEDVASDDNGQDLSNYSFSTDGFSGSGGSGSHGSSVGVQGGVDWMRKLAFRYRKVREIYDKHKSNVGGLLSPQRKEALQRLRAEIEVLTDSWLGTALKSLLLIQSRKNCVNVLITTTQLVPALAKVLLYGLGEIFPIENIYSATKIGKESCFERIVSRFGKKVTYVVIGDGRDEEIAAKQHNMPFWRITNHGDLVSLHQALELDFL

human EYA3 [2] = target: T2, human EYA3; experiment: pNPP hydrolysis by full-length EYA3; format: biochemical; parameters: residues 127–573 of NM_001990, isoform 1; His-GST (poly-histidine, glutathione-S-transferase) with TVMV protease site (cleaved yes); made in house; settings: for IC50: full-length human EYA3, substrate pNPP
From the text: as §1, with “chromatography. […]” for “chromatography.”
as §2

Row | Structure (SMILES) | IC50 (Eya3(ED)) [µM] | IC50 (human EYA3 [1]) [µM] | IC50 (human EYA3 [2]) [µM] | fold greater activity towards EYA3 than PTP1B (human EYA3 [2]; pNPP hydrolysis, EYA3 versus PTP1B)
1 | CCc1oc2ccccc2c1C(=O)c1cc(Br)c(O)c(Br)c1 [Compound 1, Benzbromarone, reference compound] | 11 | 37 | 8.3 | 4.7–6.5 fold
2 | CCCCc1oc2ccccc2c1C(=O)c1ccc(O)cc1 [Compound 1b] |  |  | 15.2 | 
